From article PMC10892419, “UHPLC-MS/MS Assay for Quantification of Legubicin, a Novel Doxorubicin-Based Legumain-Activated Prodrug, and Its Application to Pharmacokinetic and Tissue Distribution Studies” (Molecules, 2024)

How the values were obtained:
[1] = Tissue-distribution study after i.v. legubicin or doxorubicin; settings: HT1080 tumor-bearing mice, i.v. 9.05 µmol/kg of the labelled drug, n = 6; tissue-to-plasma ratio
Procedure: The mixture was vortexed for 3 min, and then centrifuged at 22,000× g at 4 °C for 10 min. A final analysis was conducted by injecting 5 µL supernatant into a UHPLC-MS/MS system. Mouse plasma samples were treated in the same way as the rat plasma samples, except for protein precipitation, with 200 µL of 5 pmol/mL IS working solution and injection of 2 µL of supernatant for analysis.
Each legubicin administration group corresponded to a sampling time-point (4, 16, 32, 48, 96, 168, and 240 h after administration). […] Blood samples and tumor, heart, and kidney tissues were collected at the sampling time points (4, 16, 32, 48, 96, 168, and 240 h after dosing). In addition, liver, spleen, lung, stomach, small intestine, gonads, brain, skeletal muscle, and skin were also collected at 4, 32, 96, and 240 h post-dose time points in the legubicin administration group. All whole-blood samples were processed according to the same processing steps, described above, for rat whole-blood samples.
The analysis software (Version 1.5.2, AB Sciex, Vaughan, ON, Canada) was applied to data acquisition and quantification. Pharmacokinetic parameters were calculated with WinNonlin Phoenix (v6.4, Pharsight, Mountain View, CA, USA) with the noncompartmental method, and were presented as mean ± SD (%CV). The “Best fit” strategy in the WinNonlin Phoenix was used for the calculation of elimination half-life and the selection of the elimination phase. Graphs were plotted by GraphPad Software (GraphPad Prism 8.0.2; GraphPad Software, Inc., La Jolla, CA, USA).

[2] = Storage stability of analytes in mouse liver homogenate (method validation); settings: 3 cycles, low QC (Leu-DOX 27, DOX 10 pmol/mL), n = 6

- T/P Ratio of doxorubicin, heart [1]: 27.1
- T/P Ratio of doxorubicin, kidney [1]: 78.0
- T/P Ratio of doxorubicin, plasma [1]: 1.0
- T/P Ratio of doxorubicin, tumor [1]: 59.0
- Freeze and thaw stability at -80 °C/ room temperature, Bias [2]: 10.4%
Structure (SMILES): COc1cccc2c1C(=O)c1c(O)c3c(c(O)c1C2=O)C[C@@](O)(C(=O)CO)C[C@@H]3O[C@H]1C[C@H](N)[C@H](O)[C@H](C)O1 [DOX, Doxorubicin]
